Reference: patent publication US20050014682A1, “Cell-free assay for insulin signaling” (priority 2003, published 2005)

What was measured:
[1] = tested on: Akt; experiment: Cell-free in vitro assay (3T3-L1 adipocyte PM/CYT/LDM fractions), Akt phosphorylation by phospho-Akt immunoblot; format: biochemical
[2] = tested on: IRS-1; experiment: Cell-free in vitro assay, tyrosine phosphorylation by immunoprecipitation and phosphotyrosine immunoblot; format: biochemical
[3] = tested on: glucose uptake; settings: adipocytes; Calderhead, 1990; cited from earlier work

## insulin
[1]; PM(+ins) and CYT, 37° C.
  time of peak insulin-stimulated Akt phosphorylation signal from start of reaction: 10 to 15 min
[1]; PM(+ins) from cells pre-exposed to 1 μM insulin at 4° C.
  Akt phosphorylation on Thr308 and Ser473 in response to insulin: properly phosphorylated
[1]; insulin added directly to in vitro reactions containing PM(−ins)
  Akt activation by direct addition of insulin: not activated
[2]
  time of peak phosphotyrosine signal from start of reaction: 2.5 min
[3]
  increase in glucose uptake in response to acute stimulation with insulin: 10-20 fold
